Amino acid sequences for entries named in this document (tags omitted).
UniProt Q9HBW0, whole entry: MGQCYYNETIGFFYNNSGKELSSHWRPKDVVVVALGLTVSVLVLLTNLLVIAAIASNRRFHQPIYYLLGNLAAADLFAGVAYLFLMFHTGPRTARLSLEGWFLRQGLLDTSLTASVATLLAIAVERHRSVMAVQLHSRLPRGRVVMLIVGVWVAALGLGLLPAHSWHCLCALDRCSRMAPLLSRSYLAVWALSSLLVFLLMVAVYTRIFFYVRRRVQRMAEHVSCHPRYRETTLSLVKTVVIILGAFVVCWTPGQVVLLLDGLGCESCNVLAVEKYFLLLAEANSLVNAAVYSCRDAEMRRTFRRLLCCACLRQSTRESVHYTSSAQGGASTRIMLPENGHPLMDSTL

According to ChEMBL document CHEMBL5385906, “Discovery of a Potent, Selective, and Orally Bioavailable Tool Compound for Probing the Role of Lysophosphatidic Acid Type 2 Receptor Antagonists in Fibrotic Disorders” (J Med Chem, 2023):

Target: Lysophosphatidic acid receptor 2 (Homo sapiens, UniProt Q9HBW0)

Structure (SMILES) | IC50
COC(=O)Nc1nc(C)c(S(=O)(=O)N2CCN(C[C@H](C)Nc3ncnc4c(C(=O)N(C)C)cccc34)CC2)s1 | 257 nM
COC(=O)Nc1nc(C)c(S(=O)(=O)N2CCN(C[C@H](C)Nc3ncnc4c(-c5ccc(CN6CCCC6)cc5)cccc34)CC2)s1 | 0.575 nM
COC(=O)c1cccc2c(N[C@@H](C)CN3CCN(S(=O)(=O)c4ccc(Cl)c(Cl)c4)CC3)ncnc12 | 129 nM
